The source made the active and inactive calls. No cut-off for these calls is given here.
Molecular target: T1, Retinoic acid receptor RXR-alpha (Homo sapiens) (UniProt P19793)
T1 sequence (whole entry): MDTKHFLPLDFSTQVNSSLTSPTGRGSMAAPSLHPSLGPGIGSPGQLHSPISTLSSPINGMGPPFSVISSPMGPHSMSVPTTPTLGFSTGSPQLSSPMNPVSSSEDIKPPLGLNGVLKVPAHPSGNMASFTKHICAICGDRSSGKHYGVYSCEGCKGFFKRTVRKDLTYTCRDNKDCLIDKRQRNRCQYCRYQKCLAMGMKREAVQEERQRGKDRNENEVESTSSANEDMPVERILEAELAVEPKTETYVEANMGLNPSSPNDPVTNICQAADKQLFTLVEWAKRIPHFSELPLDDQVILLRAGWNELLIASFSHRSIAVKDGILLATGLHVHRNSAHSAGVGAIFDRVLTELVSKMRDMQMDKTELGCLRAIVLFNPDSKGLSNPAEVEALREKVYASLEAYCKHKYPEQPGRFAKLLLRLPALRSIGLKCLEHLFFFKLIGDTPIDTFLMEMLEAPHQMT
Assay: Agonist activity at human full length RXRalpha transiently transfected in HEK293T cells at 30 uM incubated for 16 hrs by Gal4-hybrid reporter gene based Dual-glo luciferase assay
Format: cell-based
Conditions: filed as agonist

O=C(O)c1cccc(OCc2cccc(C(F)(F)F)c2)c1
Activity: Active

Source: ChEMBL document CHEMBL5390264, “Exploring Fatty Acid Mimetics as NR4A Ligands” (J Med Chem, 2023)
